Reference: PubChem BioAssay (NCI)
“And” between values parts separate entries of the source, which are not always exact repeats. Identical values can stand only once. This is a selection; strong and weak results do not stand in their true shares. Some results for these compounds are left out of this collection, so the calls shown say nothing about other tests. Where a structure was tested more than once in an assay, its records may differ in their call. The source made the active and inactive calls. Rule as the data show it: active = growth inhibition above about 70%; inactive = the rest.

Tests used:
[1] = NCI Yeast Anticancer Drug Screen. Data for the rad50 strain (AID 155);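 also: 0% = growth of vehicle-only cultures of the same strain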; settings: S. cerevisiae rad50 strain growth inhibition, active compounds read high
[2] = NCI Yeast Anticancer Drug Screen. Data for the mec2-1 strain (AID 157); settings: S. cerevisiae mec2-1 strain, active compounds read high
[3] = NCI Yeast Anticancer Drug Screen. Data for the sgs1 mgt1 strain (AID 161);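 also: 0% = growth of cultures given vehicle only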; settings: S. cerevisiae sgs1 mgt1 strain, active compounds read high
[4] = NCI Yeast Anticancer Drug Screen. Data for the cln2 rad14 strain (AID 165);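 also: 0% = growth equal to vehicle treated cultures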; settings: S. cerevisiae cln2 rad14 strain, active compounds read high
[5] = NCI Yeast Anticancer Drug Screen. Data for the bub3 strain (AID 167); settings: S. cerevisiae bub3 mutant strain, active compounds read high
[6] = NCI Yeast Anticancer Drug Screen. Data for the mlh1 rad18 strain (AID 175); settings: S. cerevisiae mlh1 rad18 strain growth inhibition, active compounds read high
[7] = at 5.0 µM (retest, dose inferred, filed as 0.5)
[8] = at 50.0 µM (retest, dose inferred, filed as 5.0)

SMILES	growth inhibition [1, 7]	growth inhibition [1, 8]	growth inhibition ([1]; at 50.0 µM)	growth inhibition [2, 7]	growth inhibition [2, 8]	growth inhibition ([2]; at 50.0 µM)	growth inhibition [3, 7]	growth inhibition [3, 8]	growth inhibition ([3]; at 50.0 µM)	growth inhibition [4, 7]	growth inhibition [4, 8]	growth inhibition ([4]; at 50.0 µM)	growth inhibition [5, 7]	growth inhibition [5, 8]	growth inhibition ([5]; at 50.0 µM)	growth inhibition [6, 7]	growth inhibition [6, 8]	growth inhibition ([6]; at 50.0 µM)
CCN(CCCl)CC1CCCCC1	inactive: 2%	inactive: 3%	inactive: 2.75% and inactive: -21.9%	inactive: -4%	inactive: 3%	inactive: -14.1% and inactive: -8.65%	inactive: -1%	inactive: -5%	inactive: 0.15% and inactive: -3.5%	inactive: -2%	inactive: 3%	inactive: -18.1% and inactive: 28.1%	inactive: 4%	inactive: 11%	inactive: -13.7% and inactive: -9%	inactive: 4%	inactive: 6%	inactive: 14.8% and inactive: 6.5%
ClCCN(CCCl)C1CCc2ccccc2C1 (stereo not drawn)	–	–	inactive: 7.8%	–	–	inactive: -11.8%	–	–	inactive: 23.9%	–	–	inactive: 39.6%	–	–	inactive: 5%	–	–	inactive: 30.6%
C=C(C)C#CC(O)(C(=O)OC1CCN(C)CC1)C1CCCC1 (stereo not drawn)	inactive: -2%	inactive: 51%	active: 70.1%	inactive: -2%	inactive: 35%	inactive: 44.3%	inactive: 21%	inactive: 53%	inactive: 68.8%	inactive: 20%	inactive: 67%	inactive: 59.1%	inactive: 3%	inactive: 60%	inactive: 59.2%	inactive: 17%	inactive: 30%	inactive: 62.9%
C/C=C\C(O)(C(=O)O[C@@H]1C2CCN(CC2)[C@@H]1C)C1CCCC1 (stereo partly drawn)	–	–	inactive: 38.5%	–	–	inactive: 19.1%	–	–	inactive: 27.6%	–	–	inactive: 12.9%	–	–	inactive: 24.4%	–	–	inactive: 34.1%
